# Values quoted from earlier work as cited in US20260356887A1, “NOVEL MYD88 INHIBITOR FOR TREATMENT OF AUTOIMMUNE DISEASES AND USES THEREOF” (S&K THERAPEUTICS, priority 2023, published 2026).
# System: RAW 264.7 cells (LPS-induced activation of TLR4)
# Settings: cited: Masaud Shah, et al., Biomaterials 2020; cited from earlier work
compound,measurement,value
CC[C@H](C)[C@H](NC(=O)[C@H](CCCCN)NC(=O)[C@@H](NC(=O)[C@H](CCC(N)=O)NC(=O)[C@@H](N)CCCNC(=N)N)[C@@H](C)CC)C(=O)N[C@@H](Cc1c[nH]c2ccccc12)C(=O)N[C@@H](Cc1ccccc1)C(=O)N[C@@H](CCC(N)=O)C(=O)N[C@@H](CC(N)=O)C(=O)N[C@@H](CCCNC(=N)N)C(=O)N[C@@H](CCCNC(=N)N)C(=O)N[C@@H](CCSC)C(=O)N[C@@H](CCCCN)C(=O)N[C@@H](Cc1c[nH]c2ccccc12)C(=O)N[C@@H](CCCCN)C(=O)N[C@@H](CCCCN)C(=O)O [CPP],LPS-induced TNF-α secretion (CPP alone),no inhibitory effect
